# Experimental data reported in ChEMBL document CHEMBL1134525, “Novel N-(arylalkyl)indol-3-ylglyoxylylamides targeted as ligands of the benzodiazepine receptor: synthesis, biological evaluation, and molecular modeling analysis of the structure-activity relationships” (J Med Chem, 2001).
# Several values for one entry are separate records, joined by “and”; a condition that tells them apart may be missing. Equal values may be shown once.
# Experiment: Ratio of Ki with out GABA and with GABA
smiles,measurement,value
O=C(N[C@@H]1CCc2ccccc21)C(=O)c1c[nH]c2ccccc12,Ratio,1.13 and 1.1
